# Results: US20190315864A1
# Chains of the proteins cited; added tags and fusions are not shown. A line that says so, or that is headed by a name, gives the form on record, which may keep a tag or linker.
# CTLA4-Fc fusion protein (human), one chain, as listed by the source limits assumed: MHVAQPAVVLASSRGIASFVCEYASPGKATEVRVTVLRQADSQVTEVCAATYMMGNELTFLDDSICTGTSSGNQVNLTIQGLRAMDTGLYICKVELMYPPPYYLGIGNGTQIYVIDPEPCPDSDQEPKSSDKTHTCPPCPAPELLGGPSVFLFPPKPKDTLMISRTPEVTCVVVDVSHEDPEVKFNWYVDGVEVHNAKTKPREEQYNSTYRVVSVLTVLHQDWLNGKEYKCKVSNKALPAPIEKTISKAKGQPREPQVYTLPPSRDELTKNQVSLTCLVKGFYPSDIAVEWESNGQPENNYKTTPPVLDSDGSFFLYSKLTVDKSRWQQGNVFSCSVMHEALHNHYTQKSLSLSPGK
# Assays:
# [1] = target: CTLA4-Fc fusion protein (human)
# [2] = target: CTLA4-Fc fusion protein (human); assay: ELISA: plate coated with the antibody at 0.5 µg/well, CTLA4-Fc-Biotin titrated, SA-HRP, OD405; value is C of the 4-parameter fit in the table under the plot; x axis has no unit on the sheet, ng/mL by paragraph 218
substance,measurement,setting,value
"10D1 (anti-CTLA4 antibody ipilimumab from BMS, made in house)","EC50 (C of the 4-parameter fit), IL-2 in the supernatant of Jurkat T cells with anti-CD3, Raji cells and 100 ng/mL CTLA4-Fc",[1],0.0125 µg/mL
same,EC50,[2],0.0467 µg/mL
